Compounds with a hit are over-represented: about 2.2% of the library has one in this group of screens.
miR-21 reporter: raises the signal of a miR-21 reporter | HeLa miR-21 FLuc reporter, luciferase, 48 h | 340,000 tested, under 10 active | Potency, µM (titrated, usually from 38.3 µM); active = well fitted rising curve with a large enough effect; inconclusive = small, poorly fitted or top-dose-only effect; inactive = no such curve, though single readings can be large or run the other way;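 further: miR-21 action dims this reporter so a rising signal means less miR-21 action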
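Compounds were titrated across several concentrations (up to approximately 40 uM) and incubated 48 hours with HeLa miR-21-FLuc reporter cells (miR-21 target sequence downstream of FLuc, endogenous miR-21). Readout was firefly luciferase luminescence after lytic detection reagent.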
Nrf2 activator: activators of Nrf2 (ARE) signaling; AREc32 ARE-luciferase reporter (MCF7-derived line), luminescence, 24 h; Potency, µM (titrated, usually from 46.1 µM), actives largely listed as activators; 0.31% of 410,000 active; AID 624171; note: nearly all actives have a fitted effect of over 65% in size
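Steps: seed AREc32_Fluc cells (1000/well, 5% FBS OPTI-MEM); incubate overnight at 37 deg C; add 23 nL compound; incubate 24 hr; add Steady-Glo; hold 30 min RT; read luminescence.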
PI4K2A block: PI4K2A (human) kinase inhibition; purified PI4K2A, ADP-Glo luminescence, 1 h; stronger effect = lower value; activity change, negative = inhibition, % at 76.9 µM; 0.13% of 420,000 active; AID 1346378; in the data active = activity change below about -50%; inconclusive = mostly about -30% to -49%
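PI4K2A activity was measured by ADP-Glo luminescence: enzyme (4 ug/mL stock) and phosphatidylinositol (1.2 mM stock) in Tris pH 7.5/MgCl2/EGTA/Triton X-100 buffer were reacted with ATP (300 microM stock) for one hour at ambient temperature.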
Nrf2 block: inhibitors of Nrf2 signaling; 2.1% of 360,000 active; Potency, µM (doses to about 46 µM), actives largely listed as inhibitors; A549 ARE-Fluc reporter, luciferase luminescence, 18-24 h; AID 504444; note: nearly all actives have a fitted effect of over 60% in size
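Two sequential reads on A549 ARE_Fluc cells exposed to compound for 18-24 h: a CellTiter-Fluor fluorescence read for viability, then a luciferase luminescence read for Nrf2/ARE activity.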
A549 tox: A549 cytotoxicity, counter-screen for Nrf2 inhibitors; A549 ARE-Fluc cells, CellTiter-Fluor viability, 18-24 h; Potency, µM (top dose mostly 46 µM), usual class: inhibitors; 0.16% of 390,000 active; AID 504648
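A549 ARE-Fluc cells in 5% FBS OPTI-MEM, 5000 cells/well, rested 2 h then exposed to compounds in concentration-response for 18-24 h at 37 °C. Viability by CellTiter-Fluor fluorescence (Ex 405/Em 525) after 30 min; luciferase luminescence (BugLite, 15 min, RT) read afterwards.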
GALK inhibitor: inhibitors of human galactokinase. P51570. Purified GALK, Kinase-Glo residual ATP luminescence. Potency, µM (series often up to 57.5 µM), usual class: inhibitors. 0.007% of 270,000 active
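Kinase-Glo Plus luminescence measured ATP left after a 1 h room-temperature reaction. The reaction used 5 nM GALK, 100 uM galactose and 35 uM ATP at pH 8.0 (20 mM HEPES, 5 mM MgCl2, 60 mM NaCl, 1 mM DTT, 0.01% BSA).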
Hits are given with their value. Unless noted, calls come from the whole dose curve; as a rule, active = well fitted curve in the direction sought with a large enough effect; inconclusive = small, poorly fitted or top-dose-only effect, or another doubt; inactive = no such curve, though single readings can be large; an effect the other way counts as inactive or inconclusive.

Cc1c(NC(=O)C2CCCN(S(=O)(=O)c3ccc(Cl)s3)C2)c(=O)n(-c2ccccc2)n1C (stereo not drawn) was read as PI4K2A block inactive.
Screening Cc1noc(C)c1-c1ccc2ncnc(NCc3cccn3C)c2c1 returned Nrf2 block inactive and A549 tox inactive.
`Cc1sc2ncnc(SCc3ccco3)c2c1C` gave miR-21 reporter inactive, Nrf2 activator 3.2µM, PI4K2A block inactive, Nrf2 block inactive, A549 tox inactive and GALK inhibitor inactive.
Screening COC(=O)C[C@H]1CC[C@H]2[C@H](COc3ccc(NS(=O)(=O)c4ccccc4C)cc3C(=O)N2C)O1 returned PI4K2A block inactive.
COCCCNC(=O)c1ccc2c(c1)NC(=O)C(C)(C)O2 was read as PI4K2A block inactive.
COc1ccc(/C=C2\SC(c3ccc(C)cc3)=NC2=O)cc1OC was read as miR-21 reporter inactive, Nrf2 activator inactive, PI4K2A block inactive, Nrf2 block 16µM, A549 tox inactive and GALK inhibitor inactive.
COc1ccc(/C=C2\Cc3ccccc3C2=O)cc1OC was read as miR-21 reporter inactive, Nrf2 activator inactive, PI4K2A block inactive, Nrf2 block inactive, A549 tox inactive and GALK inhibitor inactive.
COc1ccc(/C=C2/CSC/C(=C/c3ccc(OC)c(OC)c3)C2=O)cc1OC was read as Nrf2 activator inactive, PI4K2A block inactive, Nrf2 block 5.2µM and A549 tox inconclusive.
`COc1ccc(/C=C2\SC(=O)NC2=S)cc1OC` gave miR-21 reporter inactive, Nrf2 activator inconclusive, PI4K2A block inactive, Nrf2 block inconclusive, A549 tox 12µM and GALK inhibitor inactive.
Screening CC(C)(C)OC(=O)C1[C@H](O)C=CC[C@H]1S(=O)c1ccccc1 (stereo partly drawn) returned PI4K2A block inactive.
Screening CC(C)CN1C(=O)[C@]2(CC(=O)N(C)C2c2ccccc2)c2cc(-n3cc(CCc4ccccc4)nn3)ccc21 (stereo partly drawn) returned PI4K2A block inactive.
CCOc1ccc(-n2c(SCC(=O)Nc3ccccc3-c3ccccc3)nnc2-c2ccncc2)cc1 was read as PI4K2A block inactive.
Screening O=C(CNC(=O)c1cccc(OC(F)F)c1)Nc1ccc(Cl)cc1 returned miR-21 reporter inactive, Nrf2 activator inactive, PI4K2A block inactive, Nrf2 block 26µM, A549 tox inactive and GALK inhibitor inactive.
`COc1ccc(C2c3c(ncn(Cc4ccccc4)c3=N)Oc3ccc4ccccc4c32)cc1OC` (stereo not drawn) gave Nrf2 block inactive and A549 tox inactive.
`COC(CNC(=O)CNC(=S)N(Cc1ccccc1)Cc1cccs1)OC` gave miR-21 reporter inactive, Nrf2 activator inactive, PI4K2A block inactive, Nrf2 block inactive, A549 tox inactive and GALK inhibitor inactive.
CC(CCc1ccccc1)NC(=O)CNC(=S)N(Cc1cccs1)C1CCCC1 (stereo not drawn) was read as miR-21 reporter inactive, Nrf2 activator inactive, PI4K2A block inactive, Nrf2 block 15µM, A549 tox inconclusive and GALK inhibitor inactive.
CCCCNC(=O)CNC(=S)N(Cc1ccccc1)Cc1cccs1 was read as miR-21 reporter inactive, Nrf2 activator inactive, PI4K2A block inactive, Nrf2 block 23µM, A549 tox inactive and GALK inhibitor inactive.
For CCOC(=O)c1ccc(NC(=O)CSc2nnc(SCc3cccc4ccccc34)s2)cc1 the results were PI4K2A block inactive.
For Cn1cc2ccc(-c3ccc4ncnc(NCc5cccs5)c4c3)cc2n1 the results were Nrf2 block inconclusive and A549 tox inactive.
`Cc1ccc(C(=O)c2cc([N+](=O)[O-])ccc2N2CC(C)OC(C)C2)cc1` (stereo not drawn) gave miR-21 reporter inactive, Nrf2 activator inactive, PI4K2A block inactive, Nrf2 block inactive, A549 tox inactive and GALK inhibitor inactive.
For Cc1ccc(C(=O)c2cc([N+](=O)[O-])ccc2N2CCCCC2)cc1 the results were miR-21 reporter inactive, Nrf2 activator inactive, PI4K2A block inactive, Nrf2 block inconclusive, A549 tox 16µM and GALK inhibitor inactive.
`N#C[C@@H]1N[C@H](CO)[C@@H]1c1ccccc1` gave PI4K2A block inactive.
Screening CCOC(=O)Cc1ccc(NC(=O)Nc2nnc(N3CCCCC3C)s2)cc1 (stereo not drawn) returned miR-21 reporter inconclusive, Nrf2 activator inactive, PI4K2A block inactive, Nrf2 block 21µM and A549 tox inconclusive.
Screening Cc1cc(=O)oc2cc(O[C@@H]3SC[C@@H](O)[C@H](O)[C@H]3O)ccc12 returned PI4K2A block inactive.
Screening CCOC(=O)C1(C(=O)OCC)Cc2c([nH]c3ccccc23)[C@]2(N1)C(=O)N(C)c1ccc(Br)cc12 returned PI4K2A block inactive.
COc1ccccc1-c1ccc(/C=C2/C=C(C)OC2=O)o1 was read as miR-21 reporter inactive, Nrf2 activator inactive, PI4K2A block inactive, Nrf2 block inconclusive and A549 tox inactive.
For COc1ccccc1-c1ccc(/C=C2\C=CC(=O)O2)o1 the results were miR-21 reporter inactive, Nrf2 activator 16µM, PI4K2A block inactive, Nrf2 block inactive, A549 tox inactive and GALK inhibitor inactive.
O=C(C1CCN(c2ncnc3c2sc2cccc(F)c23)CC1)N1CCN(Cc2ccc(F)cc2)CC1 was read as PI4K2A block inactive.
`Cc1cc2c(s1)c1cnn(Cc3ccc(F)c(Cl)c3)c(=O)c1n2C` gave Nrf2 block inactive and A549 tox inactive.
`O=C(/C=C/c1ccc(Cl)cc1)NC(=S)Nc1ccc(N2CCOCC2)c(Cl)c1` gave miR-21 reporter inactive, Nrf2 activator inactive, PI4K2A block inactive, Nrf2 block 16µM, A549 tox inactive and GALK inhibitor inactive.
For CCOC(=O)c1cc(-c2ccc(C)cc2)n(CCC(=O)Nc2ccc(OC)c(OC)c2)c1C the results were miR-21 reporter inactive, Nrf2 activator inactive, PI4K2A block inactive, Nrf2 block 18µM and A549 tox inactive.
`Cc1ccc(-n2c(SCC(=O)N/N=C/C=C\c3ccccc3[N+](=O)[O-])nnc2-c2ccccc2)cc1` gave PI4K2A block inactive.
CCN(CC)S(=O)(=O)c1cccc(C(=O)N/N=C(\C)c2ccc(O)cc2O)c1 was read as miR-21 reporter inactive, Nrf2 activator inactive, PI4K2A block inactive, Nrf2 block 10µM, A549 tox inconclusive and GALK inhibitor inactive.
CCN(CC)S(=O)(=O)c1cccc(C(=O)N/N=C/c2ccc(O)c(O)c2O)c1 was read as miR-21 reporter inactive, Nrf2 activator inactive, PI4K2A block inactive, Nrf2 block inactive, A549 tox inactive and GALK inhibitor inactive.
